Laboratory results as given in patent publication US5856161.

Target: endogenous p60 TNF receptor (human) (UniProt P19438)
Assay: 35S-labelled cdk2 added to U937 cell lysates, immunoprecipitation with affinity-purified anti-p60 receptor antibodies, PhosphorImager

cdk2 (from UniProt P24941) (enzyme)
fold increase in binding (TNF-treated against untreated cells): 10 fold
